Among the data in ChEMBL document CHEMBL1150286, “Discovery and optimization of triazolopyridazines as potent and selective inhibitors of the c-Met kinase” (J Med Chem, 2008) are IC50 values, retold here.

This test concerns the target Hepatocyte growth factor receptor (Homo sapiens, UniProt P08581). Put plainly: Inhibition of c-Met by HTRF assay.

As for `COc1ccc2c(OCc3nnc4ccc(-c5ccccc5)nn34)ccnc2c1` [AMG-208], the IC50 stood at 9 nM. In other words, the single-digit nanomolar range.
